Results taken from patent US20230365592A1 (Agios Pharmaceuticals, Inc., priority 2022, published 2023).

Target: T1, human PAH with the R408W mutation (Homo sapiens, UniProt P00439, R408W)
T1 construct: expressed in transfected cells
T1 sequence (P00439 1-452 R408W): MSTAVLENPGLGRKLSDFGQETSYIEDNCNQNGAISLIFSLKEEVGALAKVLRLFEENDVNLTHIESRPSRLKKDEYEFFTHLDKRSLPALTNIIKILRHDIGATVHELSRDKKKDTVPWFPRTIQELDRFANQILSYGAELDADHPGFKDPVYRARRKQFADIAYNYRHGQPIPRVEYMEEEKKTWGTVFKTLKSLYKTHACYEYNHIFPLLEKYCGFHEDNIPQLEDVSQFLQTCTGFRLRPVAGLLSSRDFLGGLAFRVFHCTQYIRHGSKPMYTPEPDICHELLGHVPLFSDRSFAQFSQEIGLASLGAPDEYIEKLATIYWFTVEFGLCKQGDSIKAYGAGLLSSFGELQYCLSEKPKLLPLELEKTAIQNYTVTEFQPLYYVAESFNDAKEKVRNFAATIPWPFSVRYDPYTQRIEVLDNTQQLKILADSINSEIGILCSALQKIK
Assay: Cell Based Phenylalanine Flux Assay;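 note: after compound treatment, cells received sepiapterin plus isotope-labelled Phenylalanine for 4 hours, then labelled Tyrosine in the medium was quantified, 10-point 2-fold dilution series run in duplicate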
Details: 24 hrs compound incubation, 13C-Tyrosine by LC-MS, average where tested multiple times

[1] = A375 cells expressing human R408W PAH

| AC50 [1] [µM] | AC50 (A375 cells expressing human PAH R408W) [µM] | SMILES |
| --- | --- | --- |
| < 0.5 |  | Cc1cccn2nc([C@@H]3c4nc[nH]c4CCN3C(=O)c3cnn4cc(C5CC5)ccc34)cc12 [Example 1694, (S)-(6-cyclopropylpyrazolo[1,5-a]pyridin-3-yl)(4-(4-methylpyrazolo[1,5-a]pyridin-2-yl)-6,7-dihydro-1H-imidazo[4,5-c]pyridin-5(4H)-yl)methanone] |
| > 5 |  | Cc1cccn2nc([C@H]3c4nc[nH]c4CCN3C(=O)c3cnn4cc(C5CC5)ccc34)cc12 [Example 1695, (R)-(6-cyclopropylpyrazolo[1,5-a]pyridin-3-yl)(4-(4-methylpyrazolo[1,5-a]pyridin-2-yl)-6,7-dihydro-1H-imidazo[4,5-c]pyridin-5(4H)-yl)methanone] |
|  | 1 to 5 | CC1(c2nnc(N3CCc4[nH]cnc4[C@H]3c3cc4c(F)cccn4n3)o2)CC1 [Example 2515, (S)-2-(4-(4-fluoropyrazolo[1,5-a]pyridin-2-yl)-1,4,6,7-tetrahydro-5H-imidazo[4,5-c]pyridin-5-yl)-5-(1-methylcyclopropyl)-1,3,4-oxadiazole] |
